Assay results taken from patent US6669951B2, “Compositions and methods for enhancing drug delivery across and into epithelial tissues” (CellGate, Inc., priority 1999, dated 2003).

Each substance was assayed on skin of nude mice (assay: Penetration of biotinylated conjugates into skin of nude mice (streptavidin staining)). Conditions: 1 mM-100 μM in PBS, thirty, sixty, 120 minutes.
Description: Samples (100 μl) were applied as a liquid without excipient, prevented from dispersing by a Vaseline™ barrier, and allowed to penetrate for fifteen minutes. At the end of this period the animal was sacrificed, the relevant sections of skin were excised, embedded in mounting medium (OCT), and frozen. Frozen sections (5 microns) were cut using a cryostat, collected on slides, and stained with fluorescently labeled streptavidin (Vector Laboratories, Burlingame, Calif.). The slides were fixed in acetone at 4° C. for ten minutes, air dried, soaked in PBS for five minutes, blocked with normal goat serum for five minutes, and washed with PBS for five minutes. The section was stained by incubation with fluorescently labeled streptavidin at 30 μg/ml for thirty minutes, washed with PBS, counterstained with propidium iodide (1 μg/ml) for two minutes, and the section was mounted with Vectashield™ mounting media. Slides were analyzed by fluorescent microscopy. Parallel studies were done using streptavidin-horse radish peroxidase rather than fluorescein-streptavidin. The biotinylated peptide was visualized by treatment of the sections with the horseradish peroxidase substrate diaminobenzadine, and visualization with light microscopy.
Alternatively, sample (100 μl) was applied as a liquid without excipient and prevented from evaporating by wrapping plastic wrap over the sample sealed with Vaseline™. […] Slides were analyzed by fluorescent microscopy.
At the end of this period animal was sacrificed, the relevant section of skin was excised, embedded in mounting medium (OCT) and frozen. […] Slides were analyzed by fluorescent microscopy
(§1) At the end of this period animal was sacrificed, the relevant section of skin was excised, embedded in mounting medium (OCT) and frozen. […] Slides were analyzed by fluorescent microscopy.
as §1

Substance	penetration of drug conjugates into skin
B-aca-r5-Ala-Ala-Cys-O-acyl-Cyclosporin A	very little uptake was seen
Biotin-aminocaproic acid-r5-C(hydrocortisone)-CONH2	very little uptake was seen
Biotin-aminocaproic acid-r7-C(hydrocortisone)-CONH2	effectively entered into and across the epidermis and into the dermis of the skin of nude mice
